Data from patent US7872025B2, “Optically active isomers of ketotifen and therapeutically active metabolites thereof” (Bridge Pharma, Inc., priority 1999, dated 2011).

Protein sequences, listed by entry. Tags and fused reporters are not part of them.
UniProt P31389, whole entry: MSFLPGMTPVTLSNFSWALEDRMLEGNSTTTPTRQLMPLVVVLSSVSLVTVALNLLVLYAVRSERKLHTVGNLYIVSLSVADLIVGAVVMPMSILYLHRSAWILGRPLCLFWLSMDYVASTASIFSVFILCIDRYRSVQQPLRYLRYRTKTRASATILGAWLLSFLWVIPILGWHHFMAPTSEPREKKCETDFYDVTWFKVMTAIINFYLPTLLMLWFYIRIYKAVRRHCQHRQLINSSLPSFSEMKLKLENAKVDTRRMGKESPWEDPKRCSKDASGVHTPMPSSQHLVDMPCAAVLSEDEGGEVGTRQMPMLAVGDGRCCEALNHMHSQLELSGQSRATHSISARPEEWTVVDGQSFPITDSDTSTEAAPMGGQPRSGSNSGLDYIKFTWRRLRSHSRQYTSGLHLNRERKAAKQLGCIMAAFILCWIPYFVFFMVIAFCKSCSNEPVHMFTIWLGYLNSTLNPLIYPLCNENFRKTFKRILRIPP

Biological target: T1, histamine H1-receptor (Cavia porcellus, UniProt P31389)
T1 construct: from tissue; host or cells: guinea pig cerebellum membranes
Experiment: Binding to histaminergic receptors (3H-pyrilamine binding)
Set-up: species or system guinea pig
Experimental: Briefly, membranes from guinea pig cerebellum are incubated with ^3H-pyrilamine and varying concentrations of the test compound(s). The specific binding of the radioactive ligand to the receptor is defined as the difference between total binding and nonspecific binding, determined in the presence of an excess of unlabelled ligand. The results are expressed as percentage of specific binding in the presence of compounds. […] These parameters are obtained by Hill equation curve fitting using Sigmaplot™ software.

CN1CCC(=C2c3ccccc3CC(=O)c3sccc32)CC1 (racemic) [ketotifen, 4-(1-methyl-4-piperidyline)-4H-benzo(4,5) cyclohepta-(1,2-b) thiophene-10-one]
histamine H-1 receptor antagonism / blockade: histamine H-1 antagonists
